Target: Voltage-gated inwardly rectifying potassium channel KCNH2 (Homo sapiens, UniProt Q12809)
Assay: Inhibition of human ERG expressed in CHO cells
Assay type: cell-based

Amino acid sequences for entries named in this document (tags omitted). A change or cut given only in a name is not applied to a line headed by its entry.
UniProt Q12809: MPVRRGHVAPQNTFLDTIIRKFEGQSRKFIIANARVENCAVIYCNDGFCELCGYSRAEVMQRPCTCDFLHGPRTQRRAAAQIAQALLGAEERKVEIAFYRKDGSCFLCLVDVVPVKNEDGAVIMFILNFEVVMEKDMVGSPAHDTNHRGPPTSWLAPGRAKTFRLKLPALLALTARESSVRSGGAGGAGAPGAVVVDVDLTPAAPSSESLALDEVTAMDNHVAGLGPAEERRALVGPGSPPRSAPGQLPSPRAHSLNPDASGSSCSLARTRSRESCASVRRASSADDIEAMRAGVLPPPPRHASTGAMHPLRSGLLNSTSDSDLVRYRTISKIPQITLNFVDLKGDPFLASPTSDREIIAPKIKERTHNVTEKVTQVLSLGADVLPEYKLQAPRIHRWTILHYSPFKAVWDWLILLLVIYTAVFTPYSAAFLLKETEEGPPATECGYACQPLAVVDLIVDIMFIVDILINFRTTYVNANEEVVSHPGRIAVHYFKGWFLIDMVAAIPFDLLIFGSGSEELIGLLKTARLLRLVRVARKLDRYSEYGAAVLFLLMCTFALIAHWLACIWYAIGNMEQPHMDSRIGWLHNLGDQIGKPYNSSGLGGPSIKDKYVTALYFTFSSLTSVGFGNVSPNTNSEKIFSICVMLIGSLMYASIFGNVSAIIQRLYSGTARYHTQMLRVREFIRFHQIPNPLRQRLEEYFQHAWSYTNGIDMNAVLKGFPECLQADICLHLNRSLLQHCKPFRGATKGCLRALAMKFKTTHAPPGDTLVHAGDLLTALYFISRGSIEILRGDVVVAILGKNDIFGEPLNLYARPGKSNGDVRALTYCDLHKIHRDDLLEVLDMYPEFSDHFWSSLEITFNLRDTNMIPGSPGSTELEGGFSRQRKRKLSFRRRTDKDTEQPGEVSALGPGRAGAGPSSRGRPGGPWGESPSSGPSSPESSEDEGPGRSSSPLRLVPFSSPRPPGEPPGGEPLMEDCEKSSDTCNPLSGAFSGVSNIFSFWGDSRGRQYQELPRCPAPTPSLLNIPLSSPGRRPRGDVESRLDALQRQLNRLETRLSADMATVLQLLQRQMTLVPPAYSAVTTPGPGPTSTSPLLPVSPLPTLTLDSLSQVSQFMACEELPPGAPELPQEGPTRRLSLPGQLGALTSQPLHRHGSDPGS

## O[C@@H](c1cc(C(F)(F)F)nc2c(C(F)(F)F)cccc12)[C@H]1CCCCN1 (relative stereo) [(S,R)-MEFLOQUINE]
  Ki: 1900 nM

Reference: ChEMBL document CHEMBL3098117, “Identification and optimization of an aminoalcohol-carbazole series with antimalarial properties” (ACS Med Chem Lett, 2013)
